Assay results as given in patent US9187480B2, “Peripherally restricted diphenyl purine derivatives” (RESEARCH TRIANGLE INSTITUTE, priority 2012, dated 2015).

Amino acid sequences for entries named in this document (tags omitted).
UniProt P21554, whole entry: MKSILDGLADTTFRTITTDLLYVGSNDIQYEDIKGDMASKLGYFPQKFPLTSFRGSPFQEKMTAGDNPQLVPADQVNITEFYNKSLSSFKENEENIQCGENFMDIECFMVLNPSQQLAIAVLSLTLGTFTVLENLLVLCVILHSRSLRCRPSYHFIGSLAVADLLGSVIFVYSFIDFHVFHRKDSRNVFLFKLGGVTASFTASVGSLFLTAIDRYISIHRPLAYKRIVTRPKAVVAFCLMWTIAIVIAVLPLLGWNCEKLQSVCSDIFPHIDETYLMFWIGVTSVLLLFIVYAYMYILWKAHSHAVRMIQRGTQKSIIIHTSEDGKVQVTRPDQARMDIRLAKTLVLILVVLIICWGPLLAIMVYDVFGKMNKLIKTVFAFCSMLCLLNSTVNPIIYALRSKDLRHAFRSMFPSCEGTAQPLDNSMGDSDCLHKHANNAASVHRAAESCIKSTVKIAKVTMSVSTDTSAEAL

Target: CB1 (Homo sapiens (Human), UniProt P21554)
Assay: Displacement of [3H]CP55940 in membranes of CHO-K1 cells over-expressing CB1;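 note: reported values are averages of 3-6 independent measurements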
Conditions: CB1 versus CB2

With O=C(CC1CCCCC1)NC1CCN(c2ncnc3c2nc(-c2ccccc2Cl)n3-c2ccc(Cl)cc2)CC1 the “Binding Selectivity using CP55940 Displacement” value was 1223.
